System: Hsp90 in JNPL3 brain extracts

**Q.** How did the EC50 turn out when `C#CCN(C)CCCn1c(Cc2cc3c(cc2I)OCO3)nc2c(N)nc(F)nc21` [PU-BSI11] was run?
**A.** Its EC50 is 29.9 nM.
